Laboratory results as given in patent publication US5075338A (priority 1986, dated 1991).

Test: acute toxicity (on rats)
Details: rat

In the case of `CC(Cc1ccccc1)NCCBr` (centres unmarked), the “percentage printed in parentheses beside the s.c. LD50” value (at the dose printed as LD50 bound) is reported as 0% and the LD50 (s.c.) is reported as > 200 mg/kg.
